{"sequences": {"note": "Sequences of proteins named here, by UniProt entry; tags and fusion partners are left off.", "UniProt Q14974, whole entry": "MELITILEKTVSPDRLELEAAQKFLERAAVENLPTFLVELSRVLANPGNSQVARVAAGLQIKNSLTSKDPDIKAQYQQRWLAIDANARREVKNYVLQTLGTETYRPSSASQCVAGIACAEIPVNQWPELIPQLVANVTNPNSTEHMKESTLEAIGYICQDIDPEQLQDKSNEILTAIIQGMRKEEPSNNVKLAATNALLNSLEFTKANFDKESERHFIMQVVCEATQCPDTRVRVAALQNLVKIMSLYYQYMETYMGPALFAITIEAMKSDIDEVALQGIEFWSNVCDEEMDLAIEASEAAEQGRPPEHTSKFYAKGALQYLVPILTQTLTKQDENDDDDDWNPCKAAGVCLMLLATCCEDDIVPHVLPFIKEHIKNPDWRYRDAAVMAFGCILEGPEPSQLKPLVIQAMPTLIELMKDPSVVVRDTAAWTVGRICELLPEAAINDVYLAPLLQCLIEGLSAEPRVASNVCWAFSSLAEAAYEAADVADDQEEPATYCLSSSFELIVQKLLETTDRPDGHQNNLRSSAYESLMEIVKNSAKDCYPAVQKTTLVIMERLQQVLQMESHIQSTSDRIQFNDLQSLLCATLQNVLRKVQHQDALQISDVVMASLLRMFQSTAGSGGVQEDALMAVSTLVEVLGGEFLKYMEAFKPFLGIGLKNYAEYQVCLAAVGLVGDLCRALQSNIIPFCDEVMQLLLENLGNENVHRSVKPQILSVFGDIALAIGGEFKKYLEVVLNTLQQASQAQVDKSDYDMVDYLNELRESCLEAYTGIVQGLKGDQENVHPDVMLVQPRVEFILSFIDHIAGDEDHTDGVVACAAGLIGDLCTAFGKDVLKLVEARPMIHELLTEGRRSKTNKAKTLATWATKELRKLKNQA", "UniProt O95149, whole entry partner": "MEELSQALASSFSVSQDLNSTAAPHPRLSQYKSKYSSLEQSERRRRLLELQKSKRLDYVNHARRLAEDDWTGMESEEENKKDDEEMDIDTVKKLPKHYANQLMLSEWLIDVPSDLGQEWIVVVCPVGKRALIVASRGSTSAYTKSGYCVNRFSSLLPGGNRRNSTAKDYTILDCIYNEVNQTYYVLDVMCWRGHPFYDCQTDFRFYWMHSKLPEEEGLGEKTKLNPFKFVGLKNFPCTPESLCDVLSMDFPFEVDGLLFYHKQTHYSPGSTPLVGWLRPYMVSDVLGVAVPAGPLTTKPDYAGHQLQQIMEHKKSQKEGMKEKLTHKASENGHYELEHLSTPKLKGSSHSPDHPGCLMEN"}, "source": "PubChem BioAssay AID540263", "about": "(National Center for Advancing Translational Sciences (NCATS), 2011)", "note": "This is a selection; strong and weak results do not stand in their true shares. Inconclusive results are not listed. Some structures show a salt or complex split into parts, the way the source records it. Calls of active or inactive are those of the source. Calls come from the whole dose curve."}
{"target": "Importin subunit beta-1 (Homo sapiens) (UniProt Q14974)", "test": "qHTS Assay for Inhibitors of Rango (Ran-regulated importin-beta cargo) - Importin beta complex formation;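 note: 0% = DMSO wells and 100% = buffer wells lacking importin beta; nearly all actives have a fitted effect of over 15% in size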", "conditions": "Rango CFP/YFP FRET sensor + importin beta, 45 min; at 92.2 µM (top of the series)", "from_the_text": "NIH Molecular Libraries Probe Production Centers Network [MLPCN] NIH Chemical Genomics Center [NCGC] MLPCN Grant: R03 MH090808-01A1 Assay Submitter (PI): Petr Kalab NCGC Assay Overview: The small GTPase Ran regulates transport of macromolecules between the nucleus and the cytoplasm (nuclear transport) and has important functions in mitotic spindle assembly, nuclear envelope (NE) formation and nuclear pore complex (NPC) assembly. RanGTP gradient is thought to promote spindle assembly by providing a spatial clue to microtubule nucleation and Aurora A activation. Because the localized release and binding of importin alpha cargo relays this spatial clue to SAFs, inhibitors of the Rango - importin beta complex can then be used in further understanding their role in cell cycle specifically in mitosis progression. […] Activation of Aurora A has been linked to different types of cancer and a number of Aurora kinase inhibitors are being developed as potential canter therapeutics therefore, identified inhibitors of this complex could be developed into potential anti-mitotic probes for cancer treatment. Purified recombinant proteins Rango and importin beta were provided by the assay submitter. The assay used a fluorescence resonance energy transfer (FRET) Rango biosensor that contains the IBB of human snurportin 1 flanked by yellow fluorescent protein (EYFP) at the amino terminus and cerulean CFP10 at the carboxy terminus. […] Inhibitors will therefore be identified based on the ability to interfere with the FRET signal decrease. DMSO treated and no importin beta (buffer only) wells were used as negative and positive controls respectively. FRET readings were obtained at two time points. FRET reading prior to importin beta addition (pre-read) were used flag potential compound interference; FRET reading after importin beta addition (post-read) were used to identify inhibitors using the FRET ratio parameter.\nNCGC Assay Protocol Summary: Two and a half uL/well of Rango-buffer solution (50 nM Rango, 1x PBS, 1mM DTT, 0.02% Tween-20, 0.1% BSA final concentrations) was dispensed into 1536-well assay plates (Greiner, solid black medium-binding plates) with Aurora Discovery BioRAPTR Flying Reagent Dispenser (FRD; Beckton-Dickenson). Compound solution (23 nL) was transferred to the assay plate using Kalypsys pin tool equipped with a 1536-pin tool and incubated at room temperature for 5 min followed by a FRET pre-read using the PerkinElmer Envision plate reader. Two and a half uL/well of Importin beta - buffer solution (0.125 microM importin beta, 1x PBS, 1mM DTT, 0.02% Tween-20, 0.1% BSA final concentrations) were then added and incubated at room temperature giving a final reaction volume of 5uL. After 45min FRET post-read was obtained via the Envision plate reader using the same optics and settings as the pre-read (CFP/YFP optimized dual optical module D450/D505; excitation mirror CFP 430/24 nm; and emission filters CFP 486/10 nm and YFP 530/10 nm)."}
{"smiles": "CCOC(=O)N1CCC(Nc2cccc(C)c2)CC1", "inhibition of complex formation": "inactive: 6.18%"}
{"smiles": "COc1cc(C(=O)NCC2(N(C)C)CCCCC2)ccc1OC(F)F", "inhibition of complex formation": "inactive: -0.445%"}
{"smiles": "CCOC(=O)N1CCC(Nc2ccc(F)cc2)CC1", "inhibition of complex formation": "inactive: 0.0234%"}
{"smiles": "COc1ccc(NC2CCN(CCc3ccccc3)CC2)c(OC)c1", "inhibition of complex formation": "inactive: 1.64%"}
{"smiles": "CCCCOc1ccc(C(=O)NCC2(N3CCOCC3)CCCCC2)cc1", "inhibition of complex formation": "inactive: 2.33%"}
{"smiles": "O=P1(N(CCCl)CCCl)SCCCS1", "inhibition of complex formation": "inactive: -1.34%"}
{"smiles": "O=C(NCC1(N2CCCCC2)CCCCC1)c1ccc(F)cc1", "inhibition of complex formation": "inactive: -2.38%"}
{"smiles": "CCOc1ccc(C)cc1CN(CCCl)CCCl", "inhibition of complex formation": "inactive: 5.91%"}
{"smiles": "CCOC(=O)N1CCC(Nc2ccc(OC)cc2)CC1", "inhibition of complex formation": "inactive: -0.132%"}
{"smiles": "COc1ccc(Cl)cc1C(=O)NCC1(N2CCOCC2)CCCCC1", "inhibition of complex formation": "inactive: 0.297%"}
{"smiles": "O=C1C(O)=C([N+](=O)[O-])C(=O)C(O)=C1[N+](=O)[O-]", "inhibition of complex formation": "inactive: -0.722%"}
{"smiles": "O=C(NCC1(N2CCCCC2)CCCCC1)c1ccc(Cl)s1", "inhibition of complex formation": "inactive: 3.21%"}
{"smiles": "N#CC1(Nc2ccccc2)CCN(Cc2ccccc2)CC1", "inhibition of complex formation": "inactive: 5.72%"}
{"smiles": "O=C(OC1CN2CCC1CC2)C1c2ccccc2Oc2ccccc21", "note": "(configuration not stated)", "inhibition of complex formation": "inactive: -3.13%"}
{"smiles": "O=C(NCC1(N2CCOCC2)CCCCC1)c1cc2ccccc2o1", "inhibition of complex formation": "inactive: 2.58%"}
{"smiles": "Cc1cc(C)cc(N(C(=O)c2ccccc2)C2CCN(C(=O)OC(C)(C)C)CC2)c1", "inhibition of complex formation": "inactive: 0.037%"}
{"smiles": "O=C(NCC1(N2CCCCC2)CCCCC1)c1ccc(Cl)nc1", "inhibition of complex formation": "inactive: -2.13%"}
{"smiles": "Cc1cccc(NC2(C#N)CCN(Cc3ccccc3)CC2)c1", "inhibition of complex formation": "inactive: -0.901%"}
{"smiles": "CSc1ccccc1C(=O)NCC1(N2CCCCC2)CCCCC1", "inhibition of complex formation": "inactive: -5.98%"}
{"smiles": "O=C(NCC1(N2CCCCC2)CCCCC1)c1cccs1", "inhibition of complex formation": "inactive: 1.47%"}
{"smiles": "O=C(NCC1(N2CCCCC2)CCCCC1)c1ccc(=O)[nH]c1", "inhibition of complex formation": "inactive: -1.96%"}
{"smiles": "COc1ccc(C(=O)NCC2(N3CCCCC3)CCCCC2)c(OC)c1OC", "inhibition of complex formation": "inactive: -4.05%"}
{"smiles": "CC(C)(C)OC(=O)N1CCC(N(C(=O)c2ccccc2)c2ccc(F)cc2)CC1", "inhibition of complex formation": "inactive: 1.85%"}
{"smiles": "COc1ccc(C(=O)NCC2(N3CCCCC3)CCCCC2)cc1", "inhibition of complex formation": "inactive: -14.1%"}
{"smiles": "CCCOc1ccc(C(=O)NCC2(N(C)C)CCCCC2)cc1OC", "inhibition of complex formation": "inactive: 0.0479%"}
{"smiles": "CN1CCC(Nc2cccc(F)c2)CC1", "inhibition of complex formation": "inactive: -2.71%"}
{"smiles": "O=C(NCC1(N2CCCCC2)CCCCC1)c1cncc(Br)c1", "inhibition of complex formation": "inactive: 1.09%"}
{"smiles": "COc1ccc2c(c1O)-c1c(O)c(OC)cc3c1[C@H](C2)[N+](C)(C)CC3.O=[N+]([O-])c1cc([N+](=O)[O-])c([O-])c([N+](=O)[O-])c1[O-]", "inhibition of complex formation": "inactive: 3.73%"}
{"smiles": "O=C(OC1CN2CCC1CC2)c1ccc([N+](=O)[O-])cc1", "note": "(configuration not stated)", "inhibition of complex formation": "inactive: -1.18%"}
{"smiles": "O=C(NCC1(N2CCOCC2)CCCCC1)c1cc(F)c(F)cc1Cl", "inhibition of complex formation": "inactive: -3.55%"}
{"smiles": "COc1cc(OC)c(C(=O)NCC2(N(C)C)CCCCC2)cc1OC", "inhibition of complex formation": "inactive: 0.54%"}
{"smiles": "CN(C)c1cccc(C(=O)NCC2(N3CCCCC3)CCCCC2)c1", "inhibition of complex formation": "inactive: -1.37%"}
{"smiles": "O=[N+]([O-])c1cc([N+](=O)[O-])c(OC2CCCCC2O)c([N+](=O)[O-])c1", "note": "(configuration not stated)", "inhibition of complex formation": "inactive: -1.03%"}
{"smiles": "CC(C)c1ccc(NC2CCN(C(=O)OC(C)(C)C)CC2)cc1", "inhibition of complex formation": "inactive: 0.467%"}
{"smiles": "COc1ccc(NC2CCN(C(=O)OC(C)(C)C)CC2)cc1", "inhibition of complex formation": "inactive: 0.0122%"}
{"smiles": "CC(C)c1ccc(C(=O)NCC2(N3CCOCC3)CCCCC2)cc1", "inhibition of complex formation": "inactive: -0.159%"}
{"smiles": "CN1CCN(CCOC(=O)C(O)(c2ccccc2)c2ccccc2)CC1", "inhibition of complex formation": "inactive: -1.99%"}
{"smiles": "O=C(NCC1(N2CCOCC2)CCCCC1)c1cc(=O)[nH]c2ccccc12", "inhibition of complex formation": "inactive: 1.93%"}
{"smiles": "COc1cc(C(=O)NCC2(N3CCCCC3)CCCCC2)ccc1OC(F)F", "inhibition of complex formation": "inactive: 1.61%"}
{"smiles": "O=C(NCC1(N2CCCCC2)CCCCC1)c1cccc(C(F)(F)F)c1", "inhibition of complex formation": "inactive: -1.17%"}
{"smiles": "O=[N+]([O-])c1cc([N+](=O)[O-])c(NCC2CCS(=O)(=O)C2)c([N+](=O)[O-])c1", "note": "(configuration not stated)", "inhibition of complex formation": "inactive: -2.61%"}
{"smiles": "O=C(NCC1(N2CCCCC2)CCCCC1)c1cccc([N+](=O)[O-])c1", "inhibition of complex formation": "inactive: 0.313%"}
{"smiles": "CSc1ccc(C(=O)NCC2(N3CCOCC3)CCCCC2)cc1", "inhibition of complex formation": "inactive: -0.951%"}
{"smiles": "N#CC1(Nc2ccccc2)CCN(CCc2ccccc2)CC1", "inhibition of complex formation": "inactive: 2.28%"}
{"smiles": "O=C(NCC1(N2CCCCC2)CCCCC1)c1ccc(OC(F)F)cc1", "inhibition of complex formation": "inactive: -1.98%"}
{"smiles": "CCCN1CCC(Nc2cc(OC)cc(OC)c2)CC1", "inhibition of complex formation": "inactive: 2.56%"}
{"smiles": "Cc1cc(N(CCCl)CCCl)ccc1C=O", "inhibition of complex formation": "inactive: 2.82%"}
{"smiles": "c1ccc(CN2CCC(Nc3ccccc3)CC2)cc1", "inhibition of complex formation": "inactive: 3.37%"}
{"smiles": "CN(C)C1(CNC(=O)c2cccc(C#N)c2)CCCCC1", "inhibition of complex formation": "inactive: -0.526%"}
{"smiles": "CCOC(=O)C(CC)C1=NC(C)(C)Cc2ccccc21.O=[N+]([O-])c1cc([N+](=O)[O-])c(O)c([N+](=O)[O-])c1", "note": "(configuration not stated)", "inhibition of complex formation": "inactive: -0.164%"}
{"smiles": "CC(C)(C)OC(=O)N1CCC(N(C(=O)c2ccccc2)c2ccc(Cl)cc2)CC1", "inhibition of complex formation": "inactive: -0.387%"}
{"smiles": "O=C(O)c1cccc(Nc2c([N+](=O)[O-])cc([N+](=O)[O-])cc2[N+](=O)[O-])c1", "inhibition of complex formation": "inactive: 5.41%"}
{"smiles": "CCc1cc(C(=O)NCC2(N3CCCCC3)CCCCC2)sc1C", "inhibition of complex formation": "inactive: 3.46%"}
{"smiles": "O=C(OC1CN2CCC1CC2)C1c2ccccc2C=Cc2ccccc21", "note": "(configuration not stated)", "inhibition of complex formation": "inactive: -0.788%"}
{"smiles": "N/C(=N\\O)c1c(N)no[n+]1[O-]", "inhibition of complex formation": "inactive: 3.74%"}
{"smiles": "CCOC(=O)N1CCC(Nc2ccc(C)cc2)CC1", "inhibition of complex formation": "inactive: -0.0764%"}
{"smiles": "COc1ccc(C(=O)NCC2(N3CCOCC3)CCCCC2)cc1OC", "inhibition of complex formation": "inactive: -0.413%"}
{"smiles": "O=C(NCC1(N2CCOCC2)CCCCC1)c1cc(Br)ccc1Cl", "inhibition of complex formation": "inactive: 0.822%"}
{"smiles": "COc1cc(C(=O)NCC2(N3CCOCC3)CCCCC2)cc(OC)c1C", "inhibition of complex formation": "inactive: 2.5%"}
{"smiles": "CN1CCC(Nc2ccc(Cl)cc2)CC1", "inhibition of complex formation": "inactive: -0.41%"}
{"smiles": "CCC(CO)(C(=O)OC1CN2CCC1CC2)c1ccccc1", "note": "(configuration not stated)", "inhibition of complex formation": "inactive: -0.785%"}
{"smiles": "COc1cccc(C(=O)N(c2cc(C)cc(C)c2)C2CCN(C(=O)OC(C)(C)C)CC2)c1", "inhibition of complex formation": "inactive: 1.05%"}
{"smiles": "COc1cc(OC)cc(C(=O)NCC2(N3CCOCC3)CCCCC2)c1", "inhibition of complex formation": "inactive: 0.746%"}
{"smiles": "CCCOc1ccc(C(=O)NCC2(N(C)C)CCCCC2)cc1", "inhibition of complex formation": "inactive: 3.07%"}
{"smiles": "O=C(O)C1(Nc2ccccc2)CCN(Cc2ccccc2)CC1", "inhibition of complex formation": "inactive: 0.374%"}
{"smiles": "CC(C)(C)OC(=O)N1CCC(Nc2ccccc2)CC1", "inhibition of complex formation": "inactive: 0.44%"}
{"smiles": "CN1CCC(Nc2ccc(F)c(Cl)c2)CC1", "inhibition of complex formation": "inactive: -0.143%"}
{"smiles": "CCOc1ncccc1C(=O)NCC1(N2CCOCC2)CCCCC1", "inhibition of complex formation": "inactive: -0.924%"}
{"smiles": "CN(C)c1ccc(C(=O)NCC2(N3CCCCC3)CCCCC2)cc1", "inhibition of complex formation": "inactive: 0.343%"}
{"smiles": "Cn1c(=O)[nH]cc(N(CCCl)CCCl)c1=O", "inhibition of complex formation": "inactive: 0.215%"}
{"smiles": "O=C(NCC1(N2CCCCC2)CCCCC1)c1ccco1", "inhibition of complex formation": "inactive: -0.684%"}
{"smiles": "CCN1CCC(Nc2cccc(F)c2)CC1", "inhibition of complex formation": "inactive: -4.87%"}
{"smiles": "Cc1ccc(NC2(C#N)CCN(Cc3ccccc3)CC2)cc1", "inhibition of complex formation": "inactive: 1.88%"}
{"smiles": "Fc1ccccc1NC1CCN(Cc2ccccc2)CC1", "inhibition of complex formation": "inactive: -0.0053%"}
{"smiles": "Cc1ccc(C(=O)NCC2(N3CCCCC3)CCCCC2)o1", "inhibition of complex formation": "inactive: -2.2%"}
{"smiles": "COc1cc(OC)cc(C(=O)NCC2(N3CCCCC3)CCCCC2)c1", "inhibition of complex formation": "inactive: 2.54%"}
{"smiles": "CC(=O)N(c1ccccc1)C1CCNCC1", "inhibition of complex formation": "inactive: 3.24%"}
